Experimental data: PubChem BioAssay (NCATS)
The entries are a selection whose mix differs from that of the whole data set. Results filed as inconclusive are left out. Calls of active or inactive are those of the source. The call rests on the fitted dose curve; in most records, active means well fitted curve in the direction sought with a large enough effect; inconclusive means small, poorly fitted or top-dose-only effect, or another doubt; inactive means no such curve, though single readings can be large; an effect the other way counts as inactive or inconclusive.

Chains of the proteins cited; added tags and fusions are not shown.
UniProt P04637, whole entry: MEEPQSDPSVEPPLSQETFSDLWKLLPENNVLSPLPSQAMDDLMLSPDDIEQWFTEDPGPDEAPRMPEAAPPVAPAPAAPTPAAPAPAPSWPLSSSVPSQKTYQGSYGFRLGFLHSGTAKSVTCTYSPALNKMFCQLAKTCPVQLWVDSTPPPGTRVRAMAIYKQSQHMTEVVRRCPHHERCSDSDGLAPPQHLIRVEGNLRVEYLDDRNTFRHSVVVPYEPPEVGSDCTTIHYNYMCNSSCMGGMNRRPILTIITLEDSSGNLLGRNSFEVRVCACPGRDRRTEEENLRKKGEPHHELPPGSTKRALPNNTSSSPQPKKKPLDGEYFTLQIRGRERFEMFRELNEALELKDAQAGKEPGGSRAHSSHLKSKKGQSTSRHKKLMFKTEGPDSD

Legend:
[1] = molecular target: Cellular tumor antigen p53 (Homo sapiens) (UniProt P04637); test: Primary qHTS for small molecule compounds that upregulate eGFP-tagged delta133p53alpha (in N-terminal) cells. (AID 2060322); conditions: NCI-H358 eGFP-delta133p53alpha fluorescence, 24 h; active compounds read high;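 further: cells pre-induced with doxycycline then dosed without doxycycline; series mostly up to about 56 µM; 0% = DMSO vehicle and 100% = reference activator; nearly all actives have a fitted effect of over 75% in size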
[2] = BET inhibitor-based combinations targeting novel dependencies in MECOM-rearranged (r) AML: OCI-AML3 cell line (AID 2202232); conditions: OCI-AML3 viability, CellTiter-Glo luminescence, 48 h; further: potency means the concentration at half of the fitted maximal effect; nearly all actives have a fitted effect of over 35% in size
Source text: (§1) Ecotropic viral insertion site 1 (EVI1) is located on chromosome 3q26.2 as part of the MECOM (MDS and EVI1 complex) locus. Under normal hematopoiesis, EVI1 is a regulator of hematopoietic stem cell maintenance and self-renewal and EVI1 levels decrease as the cells differentiate. In approximately 5-10% of de novo acute myeloid leukemia (AML) EVI1 is aberrantly expressed, including Chromosomal inv(3)(q21;q26.2) or t(3;3)(q21;q26.2) alterations (MECOM-r) that account for about 50% of AML with EVI1 overexpression 31. AMLs with high levels of EVI1 have a poor prognosis and an overall survival time averaging between 10-14 months. EVI1 overexpression confers resistance in leukemia cells, highlighting the need to develop new targeted therapies for EVI1 overexpressing AMLs. […]
(§2) A collection of 2480 mechanistically annotated dugs (MIPE v5.0) was used to screen four 3q26.2 rearranged AML cell lines and three non-3q26.2 rearranged AML cell lines. […] Cell viability was determined by luminescence based, Cell Titer Glo assay (Promega). […] Luminescence readings were taken using a Viewlux (PerkinElmer) with a 2 s exposure time per plate. […] Quantitative drug activity data from dose-response curves was determined utilizing area Under the Curve (AUC) and Z-transformed AUC (Z-AUC, a mean-centering transformation applied to each individual cell-line screened).

[3] = BET inhibitor-based combinations targeting novel dependencies in MECOM-rearranged (r) AML: MV-4-11 cell line (AID 2202233); conditions: MV-4-11 AML viability, CellTiter-Glo luminescence, 48 h; further: potency means the concentration at half of the fitted maximal effect; nearly all actives have a fitted effect of over 45% in size
Source text: as §1, §2

[4] = BET inhibitor-based combinations targeting novel dependencies in MECOM-rearranged (r) AML: HNT-34 cell line (AID 2202234); conditions: HNT-34 AML viability, CellTiter-Glo luminescence, 48 h; further: potency means the concentration at half of the fitted maximal effect; nearly all actives have a fitted effect of over 35% in size
Procedure, shortened: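 Luminescent ATP readout (CellTiter-Glo, 15 min at room temperature) after 48 hr drug exposure gave viability. Dose-response curves, normalized to DMSO and empty-well controls, were summarized as area under the curve and its mean-centred Z-score.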

[5] = BET inhibitor-based combinations targeting novel dependencies in MECOM-rearranged (r) AML: UCSD-AML1 cell line (AID 2202235); conditions: UCSD-AML1 AML cells viability, CellTiter-Glo, 48 h; further: potency means the concentration at half of the fitted maximal effect; nearly all actives have a fitted effect of over 40% in size
Source text: as §1, §2

[6] = BET inhibitor-based combinations targeting novel dependencies in MECOM-rearranged (r) AML: AML-191 cell line (AID 2202236; further: potency means the concentration at half of the fitted maximal effect; nearly all actives have a fitted effect of over 35% in size); conditions: AML-191 viability, CellTiter-Glo luminescence, 48 h
Source text: as §1, §2

In the case of `CN(CCCl)CCCl`, the activation [1] is reported as inactive: -5.4%, the Potency [2] is reported as active: 8.33 µM and the Potency [3] is reported as active: 18.6 µM. For the same compound, the Potency [4] was active: 18.6 µM, the Potency [5] was active: 18.6 µM and the Potency [6] was active: 18.6 µM.

With `CCC(=O)N(c1ccccc1)C1(COC)CCN(CCn2nnn(CC)c2=O)CC1` the activation [1] was inactive: 22%.
